Drawing on article PMC7525492, “Microtiter plate-based antibody-competition assay to determine binding affinities and plasma/blood stability of CXCR4 ligands” (Scientific Reports, 2020), this text covers IC50 and Ki for 1 molecule.

Sequences of proteins named here, by UniProt entry; tags and fusion partners are left off.
UniProt P61073, whole entry: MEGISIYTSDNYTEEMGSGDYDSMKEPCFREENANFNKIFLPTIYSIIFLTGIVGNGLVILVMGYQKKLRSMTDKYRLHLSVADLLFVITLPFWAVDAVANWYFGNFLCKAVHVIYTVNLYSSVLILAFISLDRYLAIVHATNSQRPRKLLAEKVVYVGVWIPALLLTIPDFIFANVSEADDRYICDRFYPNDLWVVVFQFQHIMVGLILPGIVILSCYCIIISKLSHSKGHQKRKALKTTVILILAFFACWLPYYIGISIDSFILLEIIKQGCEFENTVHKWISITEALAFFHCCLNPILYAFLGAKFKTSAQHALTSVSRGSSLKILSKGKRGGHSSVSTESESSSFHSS

The test has as its target CXCR4 (Homo sapiens, UniProt P61073). The experiment in a line: 12G5 antibody competition assay on SupT1 cells. It counts as binding. The method, then:
Compounds were serially diluted in ice cold PBS and 12G5-APC antibody was diluted in cold PBS containing 1% FCS. […] Plates were incubated at 4 °C in the dark for 2 h. Afterwards cells were washed twice by centrifugation with PBS containing 1% FCS and fixed with 2% paraformaldehyde (PFA). During all pipetting steps, plates were kept cool by using a cooling pad. Antibody binding was analyzed by flow cytometry (FACS CytoFLEX; Beckman Coulter) by determination of the mean fluorescence intensity (MFI) of at least 5.000 cells (50.000 cells per well) or 1.000 cells (5.000 cells per well).
Ki calculation3 Ki=IC50/1+L/Kd
For Ki = inhibitory constant; IC50 = half maximal inhibition for 12G5 binding; [L] = 12G5 concentration; Kd = dissociation constant of 12G5.
Statistical analysis was performed in GraphPad Prism (version 8.3.0). IC50 and IC90 curves and the areas under the curves (AUC) were determined by nonlinear regression.

As a reminder, the IC50 is the concentration that gives 50% inhibition. A lower IC50 goes with greater potency. A word on the Ki: it is the equilibrium dissociation constant of an inhibitor or competing ligand from its target.

With `NCCCCN(Cc1nc2ccccc2[nH]1)[C@H]1CCCc2cccnc21` [AMD070], for the setting “SupT1 cells, APC-labelled 12G5, 2 h at 4 °C, mean ± SEM of 3 assays”, the IC50 came out at 0.037 ± 0.015 µM. The Ki (calculated from IC50 12G5 by Cheng-Prusoff, Kd of 12G5 151.5 pM) is 0.014 ± 0.006 µM.
